High-throughput results deposited in PubChem BioAssay by Broad Institute.
Dyrk1A ADPGlo: Dyrk1A (rat) kinase inhibition | actives 0.43% (n = 310,000) | ADP-Glo luminescence, NFATc1 peptide | AID 504441 | inhibition, % at 12.5 µM | Q63470; in the data active = inhibition above about 50%;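 also: plate controls were vehicle with enzyme for no effect and no enzyme for full effect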
dFosB activator: mouse delta FosB homodimer activation; P13346; purified delta FosB, TAMRA-CDK5 oligo fluorescence polarization; percent of positive-control signal above neutral wells; activation, % at 25 µM; actives 0.99% (n = 340,000); AID 493131;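 active = mean activation above about 17%, with every replicate also reaching it, limit read from the data, passing the limit was not always enough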
CDK5 inh: inhibitors of human CDK5/p35 kinase | Recombinant CDK5/p35, ADP-Glo luminescence, 60 min | actives 0.01% (n = 330,000) | Q00535+Q15078 | inhibition, % at 10 µM;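 active = highest replicate inhibition of at least 50% and at least 75% of replicates reaching 50%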;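 also: plate controls were DMSO neutral control for no effect and GW8510 at 10 µM for full effect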
CAL PDZ FP-1: inhibitors of human CAL PDZ peptide binding; Q9HD26; purified CAL PDZ, TMR-peptide fluorescence polarization, 1 h; inhibition, % at 24.9 µM; actives 0.92% (n = 300,000); AID 602252;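 active = mean inhibition of at least 30% with at least half of replicates also reaching 30%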;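 also: 0% = DMSO neutral control and 100% = excess unlabeled competitor peptide PRC23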
UUG fidelity: yeast start codon fidelity modulation. S. cerevisiae UUG-firefly luciferase reporter, luminescence/redox ratio. activity score, % at 18.7 µM. 0.13% of 350,000 active;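 active = replicate mean at a twofold rise or more, about +100% in these data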;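 also: firefly luciferase made from a UUG start codon reports start codon fidelity; reporter light over untreated wells divided by growth signal over untreated wells; some hits fall short of that in this replicate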
CAL PDZ FP-2: blocks peptide binding to human CAL PDZ domain; Q9HD26; purified CAL PDZ, TMR-peptide fluorescence polarization, 1 h; actives 0.02% (n = 330,000); inhibition, % at 20 µM;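 active = highest replicate inhibition of at least 40%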;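 also: plate controls were DMSO neutral control wells for no effect and unlabeled competitor peptide control wells for full effect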
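System: tagged CAL PDZ domain. Schedule: 1 h room-temperature incubation prior to read. Signal: fluorescence polarization (mP). Measure: percent inhibition from loss of millipolarization.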
Active calls of the source: *; . = no result given; + = active, no number. Sampled rows, rich in hits. Any-hit rate of the full collection: about 1.7%.

SMILES | Dyrk1A ADPGlo | dFosB activator | CDK5 inh | CAL PDZ FP-1 | UUG fidelity | CAL PDZ FP-2
Cc1ccc(NC(=O)CNC(=O)C2CCCCC2)nc1 | -8 | -4 | 0 | -1 | 10 | -2
Cc1cccnc1NC(=O)CNC(=O)C1CCCCC1 | 0 | 5 | -1 | 36* | -9 | -1
O=C(NC(=S)Nc1cccc(NC(=S)NC(=O)c2ccco2)n1)c1ccco1 | 21 | 23* | 1 | . | . | 0
Clc1cccc2c1CCN(Cc1nc(-c3cnccn3)no1)C2 | -1 | -7 | -2 | 56* | . | .
O=C(c1ccc(OCCN2CCCCC2)cc1)c1c(-c2ccc(O)cc2)sc2cc(O)ccc12 | 14 | 34* | 0 | -4 | -8 | -1
O=C(Cc1ccncc1)NCC[C@H]1CC[C@H](NC(=O)C2CCCC2)[C@H](CO)O1 | . | . | . | . | 196* | .
O=C(CCN1CCCCC1)NCC[C@H]1CC[C@H](NC(=O)Cc2cccnc2)[C@H](CO)O1 | . | . | . | . | 107* | .
O=C(NCC[C@H]1CC[C@H](NC(=O)c2cccnc2)[C@H](CO)O1)Nc1ccc(F)cc1 | . | . | . | . | 203* | .
Cc1ccc(NC(=O)Nc2ccc3c(c2)C(=O)N(C)[C@H]2CC[C@H](CC(=O)O)O[C@@H]2CO3)cc1 | . | . | . | . | -6 | .
CCSc1nnc(NC(=O)CCNC(=O)c2ccccc2Cl)s1 | . | 5 | 0 | 115* | -12 | 0
O=C(Nc1ccc(Cl)cc1)N[C@@H]1CC[C@@H](CCNS(=O)(=O)c2ccccc2F)O[C@H]1CO | . | . | . | . | 14 | .
C[C@H](CO)N1C[C@H](C)[C@H](CN(C)C(=O)Nc2ccc3c(c2)OCO3)Oc2ncc(-c3cncnc3)cc2C1=O | . | . | . | . | -5 | .
O=C(NCC[C@@H]1CC[C@@H](NC(=O)c2ccc3c(c2)OCO3)[C@@H](CO)O1)Nc1cc(F)ccc1F | . | . | . | . | 6 | .
COc1ccc(NC(=O)N2CCN(CCC#N)CC2)cc1 | -7 | -7 | 0 | -3 | -5 | -5
CC1=CC(=C(C#N)C#N)C=C(C)N1CCN1CCN(C(=O)Nc2ccc(Cl)c(Cl)c2)CC1 | -5 | 50* | 1 | -3 | . | -2
COc1ccccc1C(=O)NC(CCSC)C(=O)NC1CC1 (configuration not stated) | -1 | 1 | 1 | 62* | -14 | -2
COc1ccccc1C(=O)NC(CCSC)C(=O)NC1CCCCCC1 (configuration not stated) | 5 | -7 | 2 | . | -12 | -1
CCC(=O)Nc1ccc2c(c1)OC[C@@H](C)N(Cc1ccccc1OC)C[C@@H](C)[C@H](OC)CN(C)C2=O | . | . | . | . | 4 | .
COc1cccc(S(=O)(=O)Nc2ccc3c(c2)[C@@H]2C[C@H](CC(=O)N(C)C)O[C@H](CO)[C@@H]2O3)c1 | . | . | . | . | 1 | .
CO[C@@H]1CN(C)C(=O)c2ccc(NS(=O)(=O)C3CCCCC3)cc2OC[C@@H](C)NC[C@@H]1C | . | . | . | . | -20 | .
Cc1ccccc1S(=O)(=O)NCC[C@@H]1CC[C@H](NC(=O)C2CCCCC2)[C@H](CO)O1 | . | . | . | . | 9 | .
O=c1c(Br)c(Br)cnn1-c1ccccc1 | . | 1 | 0 | 32* | . | -1
COc1ccc2o/c(=N\O)c(C(=O)Nc3ccc(C)cc3)cc2c1 | 17 | 13 | -1 | 80* | . | 0
COc1ccc2oc(=N)c(C(=O)Nc3ccc(C)cc3)cc2c1 | -1 | -1 | 0 | 0 | -9 | 0
Cc1ccc(-n2c(CSc3nc(C)cc(C)n3)nnc2SCC(=O)NCc2ccco2)cc1 | . | -5 | 0 | 104* | -13 | 0
COC(=O)c1sc2nc(C)nc(SCC(=O)C(C)(C)C)c2c1C | 3 | -18 | 1 | 43* | . | -1
CCOC(=O)c1sc2nc(C)nc(SCC(=O)NC3CCS(=O)(=O)C3)c2c1C (configuration not stated) | -6 | -8 | -2 | 1 | . | -2
Cc1cc(C)n(/N=C\c2c(O)ccc3ccccc23)c(=O)c1C(N)=O | 1 | 3 | -1 | 50* | -21 | 0
O=C(Nc1nncs1)c1cc2c(s1)CCC2 | -2 | 0 | 1 | . | . | 0
CC(C)Cc1nnc(NC(=O)c2cc3c(s2)CCC3)s1 | -7 | 5 | 0 | 45* | -14 | -1
Cc1noc(C)c1NC(=O)N(C)C[C@H]1Oc2ccc(NC(=O)Cc3ccccc3)cc2CC(=O)N([C@H](C)CO)C[C@@H]1C | . | . | . | . | -3 | .
CNC(=O)c1cc(Nc2nnc(C)c3ccccc23)ccc1OC | 23 | 1 | 0 | 35* | -2 | .
COc1ccc(S(=O)(=O)N(C)C[C@H]2OCCCC[C@@H](C)Oc3ccc(NC(=O)CCC(F)(F)F)cc3C(=O)N([C@H](C)CO)C[C@H]2C)cc1 | . | . | . | . | 12 | .
COc1cc(/C=N/N=C(N)N)ccc1OCc1ccccc1Cl | 20 | 24* | 2 | -2 | . | -8
CN1C(=O)/C(=C/c2ccc(OC(=O)c3ccco3)cc2)SC1=S | 3 | 9 | 3 | + | 5 | 0
COc1cc(/C=C2\SC(=S)N(CC(=O)O)C2=O)ccc1OC(=O)c1ccco1 | 4 | 1 | 0 | -4 | -9 | -1
CN1C(=O)/C(=C\c2ccc(OC(=O)c3ccco3)cc2)SC1=S | 5 | -1 | 2 | 57* | -10 | -1
C[C@H]1CCCCO[C@H](CN(C)C(=O)Nc2cccc3ccccc23)[C@@H](C)CN([C@@H](C)CO)C(=O)c2cc(NC(=O)Nc3ccc(C(F)(F)F)cc3)ccc2O1 | . | . | . | . | -16 | .
COCCNC(=O)C[C@@H]1CC[C@H](NS(=O)(=O)c2ccc(C)cc2)[C@H](CO)O1 | . | . | . | . | -11 | .
CO[C@H]1CN(C)C(=O)c2cc(NC(=O)C3CC3)ccc2OC[C@@H](C)N(C(=O)C2CCCCC2)C[C@H]1C | . | . | . | . | 9 | .

Reformatted with tabs: five of the compounds above
SMILES	Dyrk1A ADPGlo	dFosB activator	CDK5 inh	CAL PDZ FP-1	UUG fidelity	CAL PDZ FP-2
COc1ccc2o/c(=N\O)c(C(=O)Nc3ccc(C)cc3)cc2c1	17	13	-1	80*	.	0
CNC(=O)c1cc(Nc2nnc(C)c3ccccc23)ccc1OC	23	1	0	35*	-2	.
C[C@H]1CCCCO[C@H](CN(C)C(=O)Nc2cccc3ccccc23)[C@@H](C)CN([C@@H](C)CO)C(=O)c2cc(NC(=O)Nc3ccc(C(F)(F)F)cc3)ccc2O1	.	.	.	.	-16	.
O=C(Nc1nncs1)c1cc2c(s1)CCC2	-2	0	1	.	.	0
O=c1c(Br)c(Br)cnn1-c1ccccc1	.	1	0	32*	.	-1

(continued)
SMILES | Dyrk1A ADPGlo | dFosB activator | CDK5 inh | CAL PDZ FP-1 | UUG fidelity | CAL PDZ FP-2
CN1CCN(c2ccc(NC(=S)NC(=O)c3cccc4c(Cl)cccc34)cc2)CC1 | 7 | 49* | 0 | -3 | -23 | -1
CCCC(=O)N1CCN(c2ccc(NC(=S)NC(=O)c3cccc(C)c3)cc2)CC1 | 0 | -8 | -1 | 75* | -20 | -1
COc1cccc(C(=O)NC(=S)Nc2ccc(N3CCCC3)cc2)c1 | -4 | 6 | 0 | -2 | -35 | 1
O=C(NC(=S)Nc1ccc(N2CCOCC2)cc1)c1cccc(Cl)c1Cl | 2 | -8 | -1 | 2 | -9 | -3
CO[C@H]1CN(C)C(=O)c2ccc(NC(=O)c3cc(C)on3)cc2OC[C@H](C)N(CC2CC2)C[C@H]1C | . | . | . | . | -16 | .
Cc1cc(C)c(C#N)c(Nc2ccccc2C)n1 | . | 3 | 1 | -4 | -24 | -1
Cc1cc(C)c(C#N)c(Nc2cccc(C)c2C)n1 | -1 | 4 | 1 | 83* | -4 | 4
Cc1noc(C)c1NC(=O)N(C)C[C@H]1OCCCC[C@@H](C)Oc2ccc(NS(=O)(=O)c3ccccc3)cc2C(=O)N([C@@H](C)CO)C[C@@H]1C | . | . | . | . | 9 | .
